Reference: patent US8349899B1 (Arrowhead Center, Inc., priority 2008, dated 2013)

Key:
[1] = target: T1, recombinant human EG5 motor domain (Homo sapiens, UniProt P52732); assay: microtubule-activated Eg5 ATPase assay (Cytoskeleton, Inc); assay type: biochemical; conditions: for inhibitory activity in the biochemical assay: Eg5 ATPase assay; for IC50: microtubule-activated ATPase activity of recombinant human EG5 motor domain
T1 construct: recombinant human EG5 motor domain; purchased Cytoskeleton, Inc
T1 sequence (P52732 18-359 limits assumed): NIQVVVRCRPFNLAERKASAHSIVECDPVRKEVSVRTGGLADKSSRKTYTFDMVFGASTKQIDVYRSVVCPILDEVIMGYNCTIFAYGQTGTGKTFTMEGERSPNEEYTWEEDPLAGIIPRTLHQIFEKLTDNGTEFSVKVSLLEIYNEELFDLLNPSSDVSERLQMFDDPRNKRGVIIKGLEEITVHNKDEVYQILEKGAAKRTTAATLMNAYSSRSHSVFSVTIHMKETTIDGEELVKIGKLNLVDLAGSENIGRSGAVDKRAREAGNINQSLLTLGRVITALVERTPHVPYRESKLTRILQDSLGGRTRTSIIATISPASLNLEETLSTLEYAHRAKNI

Eg5 = Eg5 (Homo sapiens, UniProt P52732); conditions: HeLa cells

Row | SMILES | inhibitory activity in the biochemical assay [1] | inhibitory activity in the biochemical assay ([1]; listed as MSTCO) | IC50 [1] | Eg5 at the monopole (Eg5; 5 μM, 4 hrs) | Eg5 on the spindle with increasing inhibitor (Eg5; 4 hrs, range of inhibitor doses) | Eg5 localization to the monopolar spindle relative to STLC-treated cells (Eg5; equivalent concentrations)
1 | COc1ccc(C(SC[C@H](N)CO)(c2ccccc2)c2ccccc2)cc1 [Compound 1.0, 2-amino-3-[(4-methoxy-phenyl)-diphenyl-methylsulfanyl]-propan-1-ol] | significant enhancement of activity | best performing analog | 230 nM | completely absent | progressively lost | consistently reduced
2 | COc1ccc(C(SC[C@@H](N)CO)(c2ccccc2)c2ccccc2)cc1 [Compound 1.3] |  |  | 250 nM |  |  | 
3 | N[C@H](CO)CSC(c1ccccc1)(c1ccccc1)c1ccccc1 [Compound 1.1] |  |  | 270 nM |  |  | 
